Assay results from ChEMBL document CHEMBL3124745, “4-Bicyclic heteroaryl-piperidine derivatives as potent, orally bioavailable stearoyl-CoA desaturase-1 (SCD1) inhibitors: part 2. Pyridazine-based analogs” (Bioorg Med Chem Lett, 2014).

Target: T1, Acyl-CoA desaturase 1 (Rattus norvegicus, UniProt P07308)
T1 sequence (P07308 whole entry): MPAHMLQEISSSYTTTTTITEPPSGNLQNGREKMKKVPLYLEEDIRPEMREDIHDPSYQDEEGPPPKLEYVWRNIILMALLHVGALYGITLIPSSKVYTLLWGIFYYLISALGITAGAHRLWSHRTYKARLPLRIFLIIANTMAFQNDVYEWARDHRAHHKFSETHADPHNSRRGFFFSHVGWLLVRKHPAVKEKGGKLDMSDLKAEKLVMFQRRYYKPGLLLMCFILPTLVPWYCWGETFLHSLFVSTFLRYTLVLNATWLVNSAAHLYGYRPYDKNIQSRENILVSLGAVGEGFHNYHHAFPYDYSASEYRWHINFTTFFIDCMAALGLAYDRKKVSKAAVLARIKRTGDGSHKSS
Test: Inhibition of SCD1 in Sprague-Dawley rat liver microsomes using stearoyl-[9,10-3H]-CoA as substrate

- IC50: 37 nM
SMILES: Cn1cc(-c2ccc(N3CCC(N4CCc5ccc(F)cc54)CC3)nn2)cn1
